Among the data in ChEMBL document CHEMBL1131916, “Novel series of O-substituted 8-quinolines and 4-benzothiazoles as potent antagonists of the bradykinin B2 receptors” (Bioorg Med Chem Lett, 1999) are inhibition values, retold here.

This experiment deals with B2 bradykinin receptor, Oryctolagus cuniculus. The experiment is described as follows: % Inhibition of BK-induced (4x10E-8M) contraction of rabbit jugular vein (RJV) at 10E-5 M concentration.
Take `Cc1nc2c(OCc3c(Cl)ccc(N(C)C(=O)CNC(=O)OCc4ccccc4)c3Cl)cccc2s1`: the inhibition came out at 75%.
As for `Cc1ccc2cccc(OCc3c(Cl)ccc(N(C)C(=O)CNC(=O)NCCCC(=O)O)c3C#N)c2n1`, the figure is 80%.
With `Cc1ccc2cccc(OCc3c(Cl)ccc(N(C)C(=O)CNC(=O)NCCCCN)c3C#N)c2n1` the figure was 72%.
With `CCNC(=O)NCC(=O)N(C)c1ccc(Cl)c(COc2cccc3ccc(C)nc23)c1C#N` the figure was 66%.
